PMC9684503 (Communications Biology, 2022)
Where “and” joins values, the source holds several entries; their conditions need not be identical. Identical values can stand only once. Like-named read-outs stand apart in the source and are kept apart here.

By UniProt entry, the sequences of proteins in these tests, tags left out.
UniProt Q01827, whole entry: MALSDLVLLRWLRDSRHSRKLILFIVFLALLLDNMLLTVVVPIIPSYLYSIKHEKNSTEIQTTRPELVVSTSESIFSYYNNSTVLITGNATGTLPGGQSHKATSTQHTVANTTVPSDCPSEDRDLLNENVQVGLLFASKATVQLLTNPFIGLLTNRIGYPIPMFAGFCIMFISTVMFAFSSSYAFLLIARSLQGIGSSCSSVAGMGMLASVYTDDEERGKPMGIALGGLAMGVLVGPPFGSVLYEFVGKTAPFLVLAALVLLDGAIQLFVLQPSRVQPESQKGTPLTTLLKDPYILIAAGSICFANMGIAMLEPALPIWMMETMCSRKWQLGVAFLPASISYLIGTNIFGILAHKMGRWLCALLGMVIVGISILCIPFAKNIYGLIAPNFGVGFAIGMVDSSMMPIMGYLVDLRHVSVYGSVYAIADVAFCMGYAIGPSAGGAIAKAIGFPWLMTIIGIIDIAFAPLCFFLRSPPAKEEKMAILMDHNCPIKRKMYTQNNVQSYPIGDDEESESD
UniProt Q01827, whole entry Q143A: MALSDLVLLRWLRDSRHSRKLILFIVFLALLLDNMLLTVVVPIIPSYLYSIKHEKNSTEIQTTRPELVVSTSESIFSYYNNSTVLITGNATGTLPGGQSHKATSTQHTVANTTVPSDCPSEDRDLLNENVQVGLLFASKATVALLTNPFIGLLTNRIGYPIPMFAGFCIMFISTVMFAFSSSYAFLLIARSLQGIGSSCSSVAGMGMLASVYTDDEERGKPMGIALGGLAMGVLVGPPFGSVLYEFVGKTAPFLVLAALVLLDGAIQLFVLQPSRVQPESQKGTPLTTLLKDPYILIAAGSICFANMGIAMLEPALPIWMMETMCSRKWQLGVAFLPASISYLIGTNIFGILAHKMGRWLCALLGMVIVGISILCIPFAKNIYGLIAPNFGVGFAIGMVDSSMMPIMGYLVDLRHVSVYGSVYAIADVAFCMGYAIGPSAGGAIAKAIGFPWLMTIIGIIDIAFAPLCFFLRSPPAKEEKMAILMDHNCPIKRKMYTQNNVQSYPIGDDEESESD
UniProt Q01827, whole entry P314A: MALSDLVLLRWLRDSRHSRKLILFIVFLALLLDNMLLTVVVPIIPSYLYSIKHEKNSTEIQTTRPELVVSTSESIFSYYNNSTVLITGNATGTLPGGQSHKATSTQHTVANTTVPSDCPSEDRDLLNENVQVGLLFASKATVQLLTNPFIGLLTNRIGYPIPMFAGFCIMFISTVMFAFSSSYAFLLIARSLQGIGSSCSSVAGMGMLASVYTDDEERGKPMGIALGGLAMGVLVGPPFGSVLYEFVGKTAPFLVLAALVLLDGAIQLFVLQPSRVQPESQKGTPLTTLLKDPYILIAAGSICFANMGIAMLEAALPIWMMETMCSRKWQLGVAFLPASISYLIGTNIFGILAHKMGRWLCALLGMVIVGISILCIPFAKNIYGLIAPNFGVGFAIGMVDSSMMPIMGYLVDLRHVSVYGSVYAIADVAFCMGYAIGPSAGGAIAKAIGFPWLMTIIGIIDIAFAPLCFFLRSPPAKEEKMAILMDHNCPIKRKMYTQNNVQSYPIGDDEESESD

Key:
rat VMAT2 = rat VMAT2 (Rattus norvegicus, UniProt Q01827)
VMAT2 = VMAT2 (Rattus norvegicus, UniProt Q01827);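 also: HEK293 cells transfected with VMAT2, pretreated 30 min with compound, then given 5 nM [3H]-DTBZ for 20 min at 37 °C, bound label read by scintillation counting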
rat VMAT2 Q143A = rat VMAT2 Q143A (Rattus norvegicus, UniProt Q01827, Q143A); experiment: FFN206 uptake assay, VMAT2 mutant
rat VMAT2 P314A = rat VMAT2 P314A (Rattus norvegicus, UniProt Q01827, P314A); experiment: FFN206 uptake assay, VMAT2 mutant

Row | IC50 (rat VMAT2; read-out: IC50 (FFN206 substrate uptake), Table 3, VMAT2 Wild-type) [nM] | IC50 (rat VMAT2; read-out: IC50 for VMAT2 inhibition (FFN206 uptake), Table 1, mean ± SD of n ≥ 3 independent experiments) [nM] | IC50 (rat VMAT2 Q143A) [nM] | IC50 (rat VMAT2 P314A) [nM] | SMILES | VMAT2-specific FFN206 uptake relative to DMSO (=1), replicate samples (rat VMAT2; Fig. 2a source data, 25 μM compound) | effect on [3H]-DTBZ binding compared with DMSO control (one-way ANOVA, p < 0.001) (VMAT2; 50 μM compound) | activity (VMAT2; hek293 cells, 50 µM) [%]
1 |  |  |  |  | COC(=O)[C@H]1[C@H]2C[C@@H]3c4[nH]c5cc(OC)ccc5c4CCN3C[C@H]2C[C@@H](OC(=O)c2cc(OC)c(OC)c(OC)c2)[C@@H]1OC [Reserpine] | 0.1515 and 0.09684 and 0.1376 | statistically significantly effect | 7.02 ± 11.2
2 | 37 ± 28 | 37 ± 28 | 366 ± 49 | 339 ± 172 | COc1cc2c(cc1OC)C1CC(=O)C(CC(C)C)CN1CC2 (stereo not shown) [Tetrabenazine] |  |  | 
